Measurements as given in ChEMBL document CHEMBL4602692, “Synthesis and Biological Evaluation of Tryptamines Found in Hallucinogenic Mushrooms: Norbaeocystin, Baeocystin, Norpsilocin, and Aeruginascin” (J Nat Prod, 2020).

The chains behind the UniProt entries cited, without tags or fusion partners.
UniProt P28223, whole entry: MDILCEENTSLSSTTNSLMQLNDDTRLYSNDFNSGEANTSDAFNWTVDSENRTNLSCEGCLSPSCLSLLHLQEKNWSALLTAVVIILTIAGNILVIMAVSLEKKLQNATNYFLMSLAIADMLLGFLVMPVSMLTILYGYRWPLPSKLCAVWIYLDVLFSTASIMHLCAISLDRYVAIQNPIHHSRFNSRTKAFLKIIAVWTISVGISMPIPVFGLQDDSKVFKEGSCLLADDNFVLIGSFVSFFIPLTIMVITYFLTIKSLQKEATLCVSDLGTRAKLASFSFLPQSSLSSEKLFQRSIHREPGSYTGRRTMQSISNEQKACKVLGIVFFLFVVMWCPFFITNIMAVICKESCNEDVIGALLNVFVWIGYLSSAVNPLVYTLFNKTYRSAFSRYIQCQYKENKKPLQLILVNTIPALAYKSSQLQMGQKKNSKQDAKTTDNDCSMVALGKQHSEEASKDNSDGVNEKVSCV

Biological target: 5-hydroxytryptamine receptor 2A (Homo sapiens, UniProt P28223)
Test: Agonist activity at human 5-HT2A receptor expressed in Flp-In T-REx 293 cells assessed as induction of Gq-mediated calcium flux incubated for 1 hr by Flou4-AM dye based FLIPR assay
Type: functional, cell-based

CNCCc1c[nH]c2cccc(O)c12
EC50: 8.4 nM
